## Ab-95 light chain CDR variants: yeast mating affinities

Source: Engelhart et al. 2022 (doi:10.1038/s41597-022-01779-4), MIT Lincoln Laboratory and A-Alpha Bio; data file from the FLAb repository.

Target peptide (SARS-CoV-2 spike, HR2 region): PDVDLGDISGINAS

Each scFv is VH, three GGGGS repeats, VL, as in the parent Ab-95, and differs from it in the CDRs of the light chain only.
VH: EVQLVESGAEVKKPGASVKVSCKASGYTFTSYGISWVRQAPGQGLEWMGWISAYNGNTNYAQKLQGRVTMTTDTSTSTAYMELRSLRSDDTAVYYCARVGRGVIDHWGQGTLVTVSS
VL: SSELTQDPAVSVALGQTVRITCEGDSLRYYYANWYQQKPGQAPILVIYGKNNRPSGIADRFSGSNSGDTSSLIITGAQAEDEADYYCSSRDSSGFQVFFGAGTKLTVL

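Phage display of a naive human antibody library on the peptide gave the parent. AAYL52 was designed without a model: most single CDR substitutions and a random sample of double and triple ones. The assay is AlphaSeq: two haploid yeast populations carry antibody and antigen on their surface. Binding brings cells together so that they mate, and sequencing counts the barcode pairs among the diploids. A regression on co-assayed BCL2-family reference pairs converts the normalised counts of each replicate to an apparent Kd. Each pool was mated in three replicate cultures.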

Positions count from residue 1 of the parent VL; R28K puts K in place of R. Every variant below is changed at R90 of the VL (sequential numbering). Each Kd is an estimate from the mating assay, the geometric mean of the replicates in which the pair was seen; lower is stronger. An entry "nd" has no value in the source: the pair was not observed among the diploids in any replicate. This suggests poor binding but is not conclusive.

The variant R28K/K50N/R90P gave 190 nM (3 of 3 replicates; controls 2 of 9). The variant R90E/V97C gave 2.7 µM (3 of 3 replicates; controls 1 of 9). With R90P/D91F/G94Q the result was 9.5 µM (3 of 3 replicates; controls 6 of 9). For E23N/R90G/F95Q, the assay gave 25 µM (3 of 3 replicates; controls 3 of 9). The variant G24C/R90A/G94Q showed 2.5 µM (2 of 3 replicates; controls 3 of 9). With R90Q the result was 11 µM (3 of 3 replicates; controls 2 of 9). The variant K50M/N51Y/R90Q showed 48 µM (3 of 3 replicates; controls 2 of 9). With D25H/L27E/R90D the result was nd (0 of 3 replicates; controls 2 of 9).

For Y30V/R90S/D91R, the assay gave 18 µM (3 of 3 replicates; controls 5 of 9). With N51V/R90K/V97S the result was nd (0 of 3 replicates; controls 3 of 9). The variant E23N/R90Y/S93E showed 1.6 µM (3 of 3 replicates; controls 2 of 9). For Y30F/S88T/R90F, the assay gave 22 µM (1 of 3 replicates; controls 3 of 9). The variant R90N/D91P gave 15 µM (2 of 3 replicates; controls 1 of 9). For R90Y/S92C/V97Q, the assay gave 660 nM (3 of 3 replicates; controls 3 of 9). For S26H/R90I, the assay gave 95 nM (3 of 3 replicates; controls 3 of 9). With L27A/N33D/R90D the result was 22 µM (1 of 3 replicates; controls 1 of 9).

The variant R53W/R90Y/F95H gave 7.5 µM (3 of 3 replicates; controls 2 of 9). The variant S89G/R90K showed 1.1 µM (1 of 3 replicates; controls 3 of 9). The variant R90Q/S92E/Q96T gave nd (0 of 3 replicates; controls 0 of 9). With D25Q/N52A/R90G the result was 4.9 µM (3 of 3 replicates; controls 3 of 9). The variant R90K/S93K/Q96I gave 310 nM (3 of 3 replicates; controls 2 of 9). For Y29H/S55R/R90D, the assay gave 860 nM (2 of 3 replicates; controls 2 of 9). The variant K50S/R90H gave 640 nM (3 of 3 replicates; controls 2 of 9). With R28E/R90N the result was nd (0 of 3 replicates; controls 0 of 9).

The variant G49W/R90L/G94K gave nd (0 of 3 replicates; controls 2 of 9). The variant S26R/K50R/R90F showed 43 µM (2 of 3 replicates; controls 5 of 9). For S26H/P54L/R90F, the assay gave 73 µM (2 of 3 replicates; controls 0 of 9). The variant N33Q/R90E/G94N showed 520 nM (1 of 3 replicates; controls 2 of 9). With E23F/N52K/R90L the result was nd (0 of 3 replicates; controls 1 of 9). With L27Q/S89F/R90D the result was 5.7 µM (1 of 3 replicates; controls 3 of 9). The variant R90M/F98G gave 1.9 µM (3 of 3 replicates; controls 0 of 9). The variant D25W/N33S/R90E gave nd (0 of 3 replicates; controls 0 of 9).

The variant R53K/P54I/R90D showed 29 µM (2 of 3 replicates; controls 4 of 9). The variant G49T/N52Y/R90S showed 54 µM (2 of 3 replicates; controls 4 of 9). For R28I/P54T/R90M, the assay gave 24 µM (1 of 3 replicates; controls 3 of 9). With Y31R/R90A/V97E the result was 30 µM (2 of 3 replicates; controls 3 of 9). With R90I/D91N/Q96L the result was nd (0 of 3 replicates; controls 2 of 9). With L27H/R90Y/S92C the result was 4.8 µM (1 of 3 replicates; controls 3 of 9). The variant L27V/R90K gave 1.4 µM (3 of 3 replicates; controls 1 of 9). For G24L/R90T/V97W, the assay gave 8.8 µM (2 of 3 replicates; controls 5 of 9).

The variant S26G/S88H/R90H gave 360 nM (1 of 3 replicates; controls 0 of 9). For G49N/R90D/S92N, the assay gave 2.3 µM (2 of 3 replicates; controls 1 of 9). With N52L/S88N/R90L the result was 510 nM (3 of 3 replicates; controls 2 of 9). With S88N/R90P/D91H the result was 190 µM (1 of 3 replicates; controls 2 of 9). With N33Q/R90W/S93T the result was nd (0 of 3 replicates; controls 0 of 9). The variant E23V/N52W/R90W showed 800 nM (3 of 3 replicates; controls 3 of 9). The variant G24P/R90P/Q96Y showed 63 µM (1 of 3 replicates; controls 3 of 9). The variant R53I/R90D/D91W showed 4.0 µM (2 of 3 replicates; controls 0 of 9).

For N33F/R90I/Q96D, the assay gave 14 µM (2 of 3 replicates; controls 2 of 9). With R28P/R90T/F98L the result was nd (0 of 3 replicates; controls 0 of 9). The variant R90T/F95I/F98H gave 240 nM (3 of 3 replicates; controls 5 of 9).

A selection of 8 entries from above:

changes	Kd	replicates with signal	empty controls
D25W/N33S/R90E	nd	0/3	0/9
L27A/N33D/R90D	22 µM	1/3	1/9
R28I/P54T/R90M	24 µM	1/3	3/9
N33Q/R90W/S93T	nd	0/3	0/9
N51V/R90K/V97S	nd	0/3	3/9
S88N/R90P/D91H	190 µM	1/3	2/9
K50M/N51Y/R90Q	48 µM	3/3	2/9
R90P/D91F/G94Q	9.5 µM	3/3	6/9

Background: pairings of library AAYL52 with three empty control strains gave a value in 28% of cases (median 8.2 µM, 5th percentile 800 nM). Values in that range, when seen in few replicates, are hard to tell from nonspecific mating. Also given: how often the same scFv was detected with the empty control strains.